Earlier results on one compound are cited in PubChem BioAssay AID1811 (Shanghai Institute of Organic Chemistry, 2009).

The test system of this data set is trypsinogen. Description: PubChem AID 1811. As to conditions: PDB complex binding affinities from literature.

Some of the results follow. Activity calls are given as the source filed them. Unless stated, no cut-off for active and inactive is given here.

For the compound `NCc1ccccc1`, the call was active.
